Measured affinities in a library of Ab-14 light chain variants

Source: Li et al. 2023 (doi:10.1038/s41467-023-39022-2), MIT Lincoln Laboratory and A-Alpha Bio; data file from the FLAb repository.

Target: peptide PDVDLGDISGINAS, taken from heptad repeat 2 (HR2) of SARS-CoV-2 spike.

The variants keep the heavy chain, the linker and the frameworks of Ab-14 (scFv order VH, three GGGGS repeats, VL).
VH: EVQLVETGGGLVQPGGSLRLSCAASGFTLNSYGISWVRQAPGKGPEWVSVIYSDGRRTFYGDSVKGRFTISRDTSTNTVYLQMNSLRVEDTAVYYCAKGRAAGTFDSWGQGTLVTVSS
VL: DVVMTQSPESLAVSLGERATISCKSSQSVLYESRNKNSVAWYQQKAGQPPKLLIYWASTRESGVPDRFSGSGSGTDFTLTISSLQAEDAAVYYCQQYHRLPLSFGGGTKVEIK

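Phage display of a naive human antibody library on the peptide gave the parent. The variants were designed computationally from a first round of random CDR variants and then made and measured. Several design methods are mixed in this list. In AlphaSeq, yeast of one mating type display the scFv and yeast of the other type display the target. Pairs that bind mate more often; barcode pairs of the diploids are counted by sequencing. The ratio of observed to expected reads was calibrated, replicate by replicate, on BCL2-family standards whose Kd was known from biolayer interferometry. Each pool was mated in six replicate cultures.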

The parent's light chain CDRs are KSSQSVLYESRNKNSVA, WASTRES, QQYHRLPLS; each variant's own CDRs replace them letter for letter.
Variants here have more than six changes.
Kd is apparent (estimated from mating counts) and averaged on the log scale over replicates with a signal. Smaller is tighter.
"no signal" marks a missing value. The strain was present, yet no cells mated with the target were sequenced in any replicate, which points to weak or no binding.

CDR-L1	CDR-L2	CDR-L3	Kd	replicates with signal
VFQQQWDGHTDTNNSVA	NVDERME	QQYYRLPLL	9.2 nM	5/6
KLQWSVMLQSRNKNSVA	QASQRMM	QQYHRLPLS	10 nM	6/6
KLLQNTGVGYRWAQNVA	HMSTRED	QQYHRLPFV	6.0 nM	6/6
KLSMGHGYGSRMKNSVA	QASQREE	QQYHRLPLS	6.4 nM	6/6
KISQMVMYESTWWNAIA	QTSTREE	QQYHRLPLS	5.3 nM	6/6
KSSPSVLWESLNKNSVA	RASTRES	QTYARLPLK	150 nM	3/6
KMKQSVDGLDRNKNSVA	QASTREM	QQYHRLPLS	950 pM	6/6
SISGFMKSLAAHRNSVA	DMTNREN	QQYDRLPLS	1.3 nM	6/6
SVFMELAEEKASTRSIA	DASMRLA	QQYVRLPLG	1.1 nM	6/6
KLPQWQLYESRNKNNVA	NASTREM	QQYHRLPLS	1.5 nM	6/6
KISTQIPEFEMWDNAIA	GATLRPT	QHYARLPLS	no signal	0/6
SLMQVDGYLSNNKNSIA	DLRTRES	QQYHRLPLS	1.7 nM	6/6
MLSEVLHMLGVQMNSIA	DLVLRAN	QQYHRLPLM	520 nM	1/6
KLMQLGDYESRNKNSVA	QASQREQ	QQYHRLPLS	350 pM	6/6
MLSGVLHMLGAKKNSIA	DLVLRAN	QQYHRLPLS	900 nM	3/6
VLPDHPLMKESQQHSIA	NEDKRME	QQYSRLPLM	3.3 nM	6/6
QLGRNQVGETLMQDAIA	HDALRAD	QQYFRLPLL	7.2 nM	6/6
KFKPSFLYWSRNSNAVA	EASTRES	QQYHRLPLS	1.0 nM	6/6
QISMLLNFESKKGDNVA	QMETRVN	QQYDRLPLS	14 nM	6/6
MFSQLTYTGSFTRNAVA	QASTREN	QQYHHLPLS	5.7 nM	6/6
KVSEYMRGLMQRKDSIA	DNETRNS	QQYDRLPLS	220 nM	5/6
TLSQMSGVEQVKHNNVA	ENSTREK	QQYDRLPLT	26 nM	6/6
KCSQNVLIMGRGPNNVA	EMTTRED	QQYDRLPLS	6.4 nM	6/6
TLSQTMDMTSRNVNSVA	DLTTRGN	QQYHRLPLS	1.6 nM	6/6
NLVGRVEDNQTERNAIA	DMHCRAG	QQYSRLPLS	8.1 nM	6/6
IIDQIMYHGNKRANSIA	QASERVN	QQYHHLPLQ	1.1 nM	1/6
KLSQFYRMESRNKNSVA	DNSTRES	QSYDRLPLS	5.3 µM	1/6
KLSQQWMQQWRNKNSVA	NASTRES	QQYHRLPLS	1.2 nM	6/6
TISGVMTQMSHSKNNVA	EVSTRLD	QQYFRLPLE	1.4 nM	6/6
KLYQSQLYDSRNKNSVA	QASHREM	QQYHRLPLS	980 pM	6/6
KAQQSEGYGERNSNSVA	EASTRES	QQYHRLPLS	2.1 nM	6/6
KSSMSWEYESRNSNSVA	HASTRED	QQYHRLPLI	2.6 nM	6/6
VFSGQWDLNTTVNSSVA	NVSERML	QQYNRLPLM	52 nM	6/6
MISQLYNMGQFAINSVA	QAETRNA	QQYDRLPLT	7.4 nM	6/6
MVSQLMMWGLHAKNSIA	EAVTRYN	QQYDRLPLF	130 nM	2/6
KCSQGELYPSTNKNSVA	WASTRES	TVPIRLPLS	no signal	0/6
TLMHHQDYGGEEKKSIA	NAIIKNE	QQYSRLPLA	6.0 nM	6/6
KIERATKGDEYFQYSIA	KGDIREK	QQYAQLPLT	21 nM	6/6
ALTAHHQVAIEAKNSIA	NAVMRYQ	QQYAQLPLM	2.3 nM	6/6
TLSGHQYNNSQKKNSIA	EDNNIRL	QQYHRLPFM	no signal	0/6
KAQQSELYGERNSNSVA	EASLRES	QQYHRLPLS	1.7 nM	6/6
KIYQLGLGSQKIMRNIA	ETSTRCT	QSYQRLPLS	14 nM	6/6
HMSDSIEKMASIARNIA	DETTLAM	QQYYRLPLS	2.7 nM	6/6
KLSFLGPYEQRNKNNVA	SASTRCS	QQYHRLPLS	460 pM	6/6
KVENYPENFRSAKDNIA	ADSATTS	QQYDRLPLA	750 nM	1/6
KLYQSVGTMSHNKQNIA	DMERRED	QQYHRLPLS	170 pM	6/6
KISYMGEYFSTNHSAIA	QASTREQ	QQYHRLPLS	5.9 nM	6/6
MLSEMLHMLGAKKNSIA	DLVLRAN	QQYHRLPLM	no signal	0/6
MISDLTMYGSRNRNSVA	DLSTRGS	QQYHRLPLS	1.1 nM	6/6
KISQSQLYEDRNHKSVA	NASTRCS	QQYHRLPLS	1.3 nM	6/6
KVEYWGDTFHQNDNSIA	HMSMVRD	QQYHRLPLA	53 nM	6/6
KQMQSGPYEDRNFNSVA	HASTRIS	QQYHRLPLS	15 nM	6/6
KLSMMYQHTSRNKNNIA	ERSTREE	QQYHHLPLS	790 pM	6/6

A selection of 3 entries from above:

CDR-L1,CDR-L2,CDR-L3,Kd,replicates with signal
MLSEVLHMLGVQMNSIA,DLVLRAN,QQYHRLPLM,520 nM,1/6
NLVGRVEDNQTERNAIA,DMHCRAG,QQYSRLPLS,8.1 nM,6/6
KQMQSGPYEDRNFNSVA,HASTRIS,QQYHRLPLS,15 nM,6/6

Background: pairings of all light chain designs with three empty control strains gave a value in 4% of cases (median 430 nM, 5th percentile 38 nM). Values in that range, when seen in few replicates, are hard to tell from nonspecific mating.
The authors averaged sequences with at least three values out of six and counted those with two or fewer as poor binders.
A sequence measured in both rounds can read differently, since the two assays cover different ranges.